Apparent affinities of Ab-95 variants for a coronavirus HR2 peptide

From the AlphaSeq antibody data of Engelhart et al. 2022 (doi:10.1038/s41597-022-01779-4), copy in the FLAb collection.

Target: peptide PDVDLGDISGINAS, taken from heptad repeat 2 (HR2) of SARS-CoV-2 spike.

Parent scFv Ab-95: VH joined to VL by the linker GGGGSGGGGSGGGGS. Changes lie in the light chain CDRs alone.
VH: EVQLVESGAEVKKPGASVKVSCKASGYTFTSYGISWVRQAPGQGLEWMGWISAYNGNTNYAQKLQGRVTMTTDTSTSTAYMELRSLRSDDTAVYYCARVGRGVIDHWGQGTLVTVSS
VL: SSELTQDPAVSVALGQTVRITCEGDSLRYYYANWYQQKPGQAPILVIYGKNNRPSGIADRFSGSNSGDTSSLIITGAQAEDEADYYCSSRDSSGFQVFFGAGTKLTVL

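Phage display of a naive human antibody library on the peptide gave the parent. In library AAYL52, one, two or three CDR residues were substituted; doubles and triples were drawn at random. AlphaSeq pools MATa yeast showing the antibodies with MATalpha yeast showing the peptide. Binding brings cells together so that they mate, and sequencing counts the barcode pairs among the diploids. The ratio of observed to expected reads was calibrated, replicate by replicate, on BCL2-family standards whose Kd was known from biolayer interferometry. Each pool was mated in three replicate cultures.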

Positions count from residue 1 of the parent VL; Y31E puts E in place of Y. All variants listed here change V97 of the VL, counted from its first residue. Kd is apparent (estimated from mating counts) and averaged on the log scale over replicates with a signal. Smaller is tighter. "no signal" means that the variant was in the library but no mating with the target was seen in any replicate; the authors take this as a sign of poor binding, and no number exists. Order: sorted from the lowest average up, undetected variants last. Three control strains display no target. For library AAYL52, 28% of the pairings with them gave a signal, with a median of 8.2 µM and one signal in twenty below 800 nM, so weak values seen in few replicates may be background. For reference, the parent read 200 nM as the reference entry and 180 nM as a member of this library.

The variant Y31E+S88N+V97K gave 36 nM (3 of 3 replicates).
The variant Y29K+K50Q+V97N gave 66 nM (3 of 3 replicates).
The variant R90E+S92H+V97W gave 130 nM (3 of 3 replicates).
The variant E23Q+Y29R+V97H gave 150 nM (3 of 3 replicates).
The variant S26N+Y30S+V97D gave 160 nM (3 of 3 replicates).
The variant K50G+D91K+V97H gave 180 nM (1 of 3 replicates).
The variant A32G+P54A+V97D gave 190 nM (3 of 3 replicates).
The variant N52E+D91K+V97D gave 270 nM (2 of 3 replicates).
The variant Y30R+A32G+V97K gave 290 nM (3 of 3 replicates).
The variant S26G+N52G+V97C gave 460 nM (3 of 3 replicates).
The variant Y29L+S92R+V97Y gave 580 nM (3 of 3 replicates).
The variant E23K+P54A+V97G gave 620 nM (3 of 3 replicates).
The variant S26A+N33D+V97T gave 650 nM (2 of 3 replicates).
The variant A32T+V97D gave 850 nM (3 of 3 replicates).
The variant P54T+R90S+V97Y gave 990 nM (3 of 3 replicates).
The variant V97A gave 1.3 µM (3 of 3 replicates).
The variant R53H+D91R+V97T gave 1.3 µM (3 of 3 replicates).
The variant K50R+D91G+V97T gave 1.6 µM (3 of 3 replicates).
The variant D25M+Q96G+V97G gave 1.6 µM (3 of 3 replicates).
The variant E23W+R90A+V97L gave 2.9 µM (3 of 3 replicates).
The variant A32I+N52F+V97R gave 3.5 µM (1 of 3 replicates).
The variant P54N+V97C+F98R gave 4.5 µM (2 of 3 replicates).
The variant R53I+R90D+V97T gave 4.7 µM (1 of 3 replicates).
The variant V97Y gave 5.0 µM (1 of 3 replicates).
The variant S93C+F95L+V97D gave 7.3 µM (1 of 3 replicates).
The variant S26Q+L27Y+V97N gave 7.6 µM (1 of 3 replicates).
The variant R28E+V97N gave 8.1 µM (1 of 3 replicates).
The variant N52K+R90P+V97S gave 11 µM (1 of 3 replicates).
The variant K50L+N51Q+V97P gave 11 µM (2 of 3 replicates).
The variant N52R+F95N+V97Q gave 15 µM (2 of 3 replicates).
The variant N33C+S93A+V97T gave 17 µM (2 of 3 replicates).
The variant G24R+K50H+V97N gave 20 µM (1 of 3 replicates).
The variant R28T+S89M+V97G gave 23 µM (3 of 3 replicates).
The variant R53E+S89K+V97S gave 50 µM (1 of 3 replicates).
The variant A32F+R53M+V97Y gave no signal (0 of 3 replicates).
The variant Y31W+G49N+V97F gave no signal (0 of 3 replicates).
The variant R90S+F95T+V97A gave no signal (0 of 3 replicates).
The variant L27P+Q96P+V97Q gave no signal (0 of 3 replicates).
The variant N33H+P54C+V97Q gave no signal (0 of 3 replicates).
The variant G24K+N33K+V97P gave no signal (0 of 3 replicates).
The variant L27Y+S92R+V97I gave no signal (0 of 3 replicates).
The variant R53W+R90L+V97T gave no signal (0 of 3 replicates).
The variant Q96M+V97L gave no signal (0 of 3 replicates).
The variant R28S+G94D+V97M gave no signal (0 of 3 replicates).
The variant A32Y+S89I+V97G gave no signal (0 of 3 replicates).
The variant R28V+S93D+V97L gave no signal (0 of 3 replicates).

The 7 strongest on average among those seen in every replicate, once more:

changes,Kd,seen in
Y31E+S88N+V97K,36 nM,3/3
Y29K+K50Q+V97N,66 nM,3/3
R90E+S92H+V97W,130 nM,3/3
E23Q+Y29R+V97H,150 nM,3/3
S26N+Y30S+V97D,160 nM,3/3
A32G+P54A+V97D,190 nM,3/3
Y30R+A32G+V97K,290 nM,3/3